Data: patent US20220411487A1 (Regeneron, published 2022)

By UniProt entry, the sequences of proteins in these tests, tags left out. Chains listed by the source or under a name are the forms on record and can include a tag or linker.
UniProt Q8IU80, other isoform, or with tags, fused parts or gaps limits assumed: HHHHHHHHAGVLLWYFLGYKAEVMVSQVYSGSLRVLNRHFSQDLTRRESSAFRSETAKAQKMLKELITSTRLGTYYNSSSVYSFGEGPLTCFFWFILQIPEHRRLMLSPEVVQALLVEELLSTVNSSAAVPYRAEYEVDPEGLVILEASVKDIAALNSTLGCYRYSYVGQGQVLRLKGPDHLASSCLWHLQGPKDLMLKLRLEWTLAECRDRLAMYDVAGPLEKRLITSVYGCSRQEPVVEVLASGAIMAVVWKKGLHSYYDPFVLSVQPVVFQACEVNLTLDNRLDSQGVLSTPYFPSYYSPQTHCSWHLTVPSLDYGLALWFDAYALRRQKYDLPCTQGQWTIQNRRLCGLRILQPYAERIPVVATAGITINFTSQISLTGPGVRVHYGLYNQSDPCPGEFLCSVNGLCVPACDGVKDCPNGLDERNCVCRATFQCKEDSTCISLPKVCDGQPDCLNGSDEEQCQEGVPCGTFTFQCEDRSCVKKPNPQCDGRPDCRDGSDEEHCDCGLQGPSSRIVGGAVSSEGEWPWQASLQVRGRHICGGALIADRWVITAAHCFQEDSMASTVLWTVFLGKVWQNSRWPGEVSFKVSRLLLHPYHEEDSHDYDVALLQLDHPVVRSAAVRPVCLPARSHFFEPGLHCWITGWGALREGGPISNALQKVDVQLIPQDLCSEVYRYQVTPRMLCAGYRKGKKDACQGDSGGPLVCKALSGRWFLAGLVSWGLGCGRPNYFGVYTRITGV
UniProt Q8IU80, other isoform, or with tags, fused parts or gaps S762A S762A: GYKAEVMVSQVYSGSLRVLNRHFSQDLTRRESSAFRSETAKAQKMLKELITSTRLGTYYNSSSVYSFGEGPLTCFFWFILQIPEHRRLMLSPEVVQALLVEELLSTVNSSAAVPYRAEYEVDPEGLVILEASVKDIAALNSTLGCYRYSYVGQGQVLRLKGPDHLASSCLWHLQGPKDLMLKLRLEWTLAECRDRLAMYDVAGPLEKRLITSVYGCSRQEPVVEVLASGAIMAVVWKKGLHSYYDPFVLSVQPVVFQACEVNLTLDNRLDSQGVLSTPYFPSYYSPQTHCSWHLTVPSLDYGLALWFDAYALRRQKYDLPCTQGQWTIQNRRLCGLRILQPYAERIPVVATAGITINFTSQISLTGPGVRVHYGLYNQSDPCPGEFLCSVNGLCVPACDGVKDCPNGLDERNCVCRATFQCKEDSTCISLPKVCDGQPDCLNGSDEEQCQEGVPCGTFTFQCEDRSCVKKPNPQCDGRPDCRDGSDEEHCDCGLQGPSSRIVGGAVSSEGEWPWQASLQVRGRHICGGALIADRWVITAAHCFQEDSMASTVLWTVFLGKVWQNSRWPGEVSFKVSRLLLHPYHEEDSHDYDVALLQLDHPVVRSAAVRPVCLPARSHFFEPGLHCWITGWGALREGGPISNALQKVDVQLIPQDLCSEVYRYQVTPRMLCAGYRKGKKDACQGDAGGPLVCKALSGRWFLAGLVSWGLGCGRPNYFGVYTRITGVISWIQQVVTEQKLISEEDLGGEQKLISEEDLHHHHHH

Assays:
[1] = target: T1, extracellular domain of cynomolgous monkey TMPRSS6 (V673M) with N-terminal 8xHistidine, CHO conditioned media (cynomolgous monkey, UniProt Q8IU80 77-811 (human entry)); test: cell-based or functional assay
T1 chain: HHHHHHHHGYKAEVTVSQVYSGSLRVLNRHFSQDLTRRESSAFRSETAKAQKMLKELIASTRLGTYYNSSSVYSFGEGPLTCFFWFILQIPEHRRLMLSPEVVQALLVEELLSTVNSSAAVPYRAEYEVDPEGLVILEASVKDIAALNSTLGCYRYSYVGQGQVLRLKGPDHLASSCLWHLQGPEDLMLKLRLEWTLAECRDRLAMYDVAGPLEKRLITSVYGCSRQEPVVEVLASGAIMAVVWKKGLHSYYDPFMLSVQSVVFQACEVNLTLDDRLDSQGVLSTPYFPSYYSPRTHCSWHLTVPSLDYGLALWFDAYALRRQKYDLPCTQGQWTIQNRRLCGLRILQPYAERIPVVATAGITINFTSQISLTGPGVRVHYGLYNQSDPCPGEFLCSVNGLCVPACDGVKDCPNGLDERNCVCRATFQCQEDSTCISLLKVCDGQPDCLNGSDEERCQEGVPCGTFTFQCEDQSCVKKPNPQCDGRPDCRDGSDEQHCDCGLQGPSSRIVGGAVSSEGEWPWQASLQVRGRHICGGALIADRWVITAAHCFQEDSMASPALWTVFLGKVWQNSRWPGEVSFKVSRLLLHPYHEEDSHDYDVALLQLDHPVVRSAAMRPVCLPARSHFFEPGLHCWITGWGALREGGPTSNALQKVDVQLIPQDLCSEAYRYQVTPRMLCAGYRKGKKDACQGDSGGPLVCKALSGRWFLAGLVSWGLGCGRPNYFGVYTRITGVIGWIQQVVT

[2] = target: extracellular domain of Human TMPRSS6 with N-terminal 8xHistidine, CHO conditioned media (human, UniProt Q8IU80); test: cell-based or functional assay
hTMPRSS6_S762A-MMH = target: T2, hTMPRSS6_S762A-MMH (human, UniProt Q8IU80); test: SPR, mAb captured via anti-hFc, 25 C
T2 construct: also called REGN5330; human TMPRSS6_S762A-MMH
Experimental: (§1) The equilibrium dissociation constant (KD) for TMPRSS6 binding to different TMPRSS6 monoclonal antibodies (mAbs) was determined using a real-time surface plasmon resonance biosensor using a Biacore 4000 instrument. All binding studies were performed in 10 mM HEPES, 150 mM NaCl, 3 mM EDTA, and 0.05% v/v Surfactant Tween-20, pH 7.4 (HBS-ET) running buffer at 25° C. and 37° C. The Biacore CM5 sensor chip surface was first derivatized by amine coupling with a human Fc specific mouse mAb to capture different TMPRSS6 mAbs. […] Different concentrations (100 nM to 3.7 nM, 3-fold serial dilution) of the TMPRSS6 reagent proteins prepared in HBS-EP running buffer were injected over the TMPRSS6 mAb captured surface for 150 seconds at a flow rate of 30 μL/min and their dissociation in HBS-ET running buffer was monitored for 10 minutes. At the end of each cycle, the TMPRSS6 mAb captured surface was regenerated using a 12 second injection of 20 mM phosphoric acid.
(§2) The association rate (kₐ) and dissociation rate (kd) were determined by fitting the real-time binding sensorgrams to a 1:1 binding model with mass transport limitation using Scrubber 2.0 (BioLogic Software) curve-fitting software. Binding dissociation equilibrium constant (KD) and dissociative half-life (t½) were calculated from the kinetic rates as: […]

mfTMPRSS6_S751A-MMH = target: T3, mfTMPRSS6_S751A-MMH (Macaca fascicularis, UniProt Q8IU80 77-811 (human entry)); test: SPR, mAb captured via anti-hFc, 25 C
T3 construct: also called REGN5977; Macaca fascicularis TMPRSS6 extracellular domain with a S751A mutation and a C-terminal myc-myc-hexahistidine tag
T3 chain: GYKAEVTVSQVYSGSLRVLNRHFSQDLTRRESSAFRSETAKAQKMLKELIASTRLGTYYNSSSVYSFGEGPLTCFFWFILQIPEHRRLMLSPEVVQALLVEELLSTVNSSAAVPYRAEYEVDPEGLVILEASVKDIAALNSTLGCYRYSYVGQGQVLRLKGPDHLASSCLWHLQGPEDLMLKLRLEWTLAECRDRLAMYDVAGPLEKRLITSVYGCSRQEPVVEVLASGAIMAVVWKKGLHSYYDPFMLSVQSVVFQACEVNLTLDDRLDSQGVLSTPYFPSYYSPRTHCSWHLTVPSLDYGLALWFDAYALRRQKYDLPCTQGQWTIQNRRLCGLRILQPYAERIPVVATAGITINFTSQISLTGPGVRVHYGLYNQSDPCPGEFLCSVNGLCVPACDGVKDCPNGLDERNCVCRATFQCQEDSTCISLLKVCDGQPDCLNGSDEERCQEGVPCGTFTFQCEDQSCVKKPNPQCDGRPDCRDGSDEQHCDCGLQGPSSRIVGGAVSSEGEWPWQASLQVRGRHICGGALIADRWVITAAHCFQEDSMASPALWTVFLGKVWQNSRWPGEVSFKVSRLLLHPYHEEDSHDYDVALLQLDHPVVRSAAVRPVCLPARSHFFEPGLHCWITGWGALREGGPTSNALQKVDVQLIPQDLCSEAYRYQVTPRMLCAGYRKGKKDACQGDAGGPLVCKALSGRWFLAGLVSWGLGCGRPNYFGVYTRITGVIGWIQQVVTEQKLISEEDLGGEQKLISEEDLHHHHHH
Experimental: as §1, §2

% inhibition of enzymatic activity, CM bioassay [1]: 81% | IC50, CM bioassay [1]: > 50 nM | % inhibition of enzymatic activity, CM bioassay [2]: 93% | IC50, CM bioassay [2]: 26 nM | 100 nM Ag Bound (hTMPRSS6_S762A-MMH): 134 RU | Kd (hTMPRSS6_S762A-MMH): 0.626 nM | koff (hTMPRSS6_S762A-MMH): 0.000157 s⁻¹ | kon (hTMPRSS6_S762A-MMH): 252000 M⁻¹ s⁻¹ | t½ (hTMPRSS6_S762A-MMH): 73 min | 100 nM Ag Bound (mfTMPRSS6_S751A-MMH): 132 RU | Kd (mfTMPRSS6_S751A-MMH): 2.37 nM | koff (mfTMPRSS6_S751A-MMH): 0.000514 s⁻¹ | kon (mfTMPRSS6_S751A-MMH): 217000 M⁻¹ s⁻¹ | t½ (mfTMPRSS6_S751A-MMH): 22 min
B1: REGN7973 (antibody, human IgG4 S228P, kappa, V domains shown)
VH: EVQLVESGGGLVKPGGSLRLSCAASGFTFSNAWMSWVRQAPGKGLEWVGRIKSKTDSGTTDYAAPVKGRFTISRDDSKNTLYLQMNSLKTEDTAVYYCTTVDNDFWSGYYNWFDPWGQGTLVTVSS
VL: [gap - about 100 residues]
notes: fully human; human IgG4 Fc with hinge S108P; also called mAb37777
